Our source for the IC50 values is patent US11446287B2, “Compounds and methods for EP300 or CBP modulation and indications therefor” (Opna Immuno-Oncology SA, priority 2019, dated 2022).

Protein sequences, listed by entry. Tags and fused reporters are not part of them. Residues count along the entry.
UniProt Q09472, 1040-1161 limits assumed: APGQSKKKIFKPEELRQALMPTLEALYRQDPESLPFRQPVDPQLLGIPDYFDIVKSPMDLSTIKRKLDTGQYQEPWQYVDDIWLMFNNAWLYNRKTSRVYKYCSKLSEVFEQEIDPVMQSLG
UniProt Q92793, 1081-1197 limits assumed: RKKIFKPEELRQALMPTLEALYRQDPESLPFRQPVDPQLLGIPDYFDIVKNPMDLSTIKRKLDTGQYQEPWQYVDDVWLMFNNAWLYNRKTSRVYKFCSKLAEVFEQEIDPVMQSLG

The target in test [1] is Recombinant human EP300 containing the bromodomain (EP300-BD (1040-1161)) (Homo sapiens, UniProt Q09472). The experiment in a line: EP300 Alphascreen binding assay. Particulars: read-out: EP300 IC50. The protocol:
EP300 Alphascreen Binding Assay
(§1) Binding of compounds of Formula (I) with EP300 was assessed using Alphascreen™ binding assay. The inhibition of the interaction between the EP300 bromodomain and its acetylated target protein was measured quantitatively using recombinant EP300 protein, an acetylated Histone 3 peptide and AlphaScreen™ technology. In absence of inhibition of the EP300 protein bound to AlphaScreen™ nickel chelate acceptor beads can interact with the acetylated Histone 3 peptide which is immobilized by the AlphaScreen™ Streptavidin coated beads. This interaction brings donor and acceptor beads in proximity. The close proximity allows the singlet oxygen produced by laser excitation of the donor beads to reach the acceptor beads and generate a luminescence signal. EP300 inhibitors result in a decrease in the proximity signal through an inhibition of the EP300—acetylated peptide interaction.
Recombinant human EP300 containing the bromodomain (EP300-BD (1040-1161)) was prepared and purified as described in protein expression and purification session. The peptide is human Histone H345-64K56Ac-Biotin (Anaspec CA, USA).
Protocol for EP300 assay: All components were prepared in buffer composed of 50 mM HEPES pH 7.5, 50 mM NaCl, 0.01% BSA, 0.01% Triton X-100, 2 mM DTT. […] 60 minutes after bead addition, Alpha signal is read on the Envision spectrometer (λEx 680 nm, λEm 520-620 nm). […]
In general terms: In Alpha technology, singlet oxygen from a donor bead excites a nearby acceptor bead.

Test [2] concerns the target Recombinant human BRD4 containing dual bromodomains (BRD4-BD12 (1-477)) (Homo sapiens, UniProt O60885). Put plainly: BRD4 Alphascreen binding assay. The following applies: read-out: BRD4 IC50. The protocol: BRD4 Alphascreen Binding Assay
Binding of compounds of Formula (I) with BRD4 was assessed using Alphascreen binding assay. The inhibition of the interaction between BRD4 and its acetylated target protein was measured quantitatively using recombinant BRD4 protein, an acetylated Histone 4 peptide, and AlphaScreen™ technology. In absence of inhibition of the BRD4 protein bound to AlphaScreen™ nickel chelate acceptor beads can interact with the acetylated Histone 4 peptide which was immobilized by the AlphaScreen™ Streptavidin coated beads. This interaction brings donor and acceptor beads in proximity. The close proximity allows the singlet oxygen produced by laser excitation of the donor beads to reach the acceptor beads and generate a luminescence signal. BRD4 inhibitors result in a decrease in the proximity signal through an inhibition of the BRD4—acetylated peptide interaction.
Recombinant human BRD4 containing dual bromodomains (BRD4-BD12 (1-477)) was prepared and purified as described in protein expression and purification session. The peptide was human Histone H41-21K5AcK8AcK12AcK16Ac-Biotin (Anaspec CA, USA).
Protocol for BRD4 assay: All components are prepared in buffer composed of 50 mM HEPES pH 7.5, 50 mM NaCl, 0.01% BSA, 0.01% Triton X-100, 2 mM DTT. […] 30 minutes after bead addition, Alpha signal was read on the Envision spectrometer (λEx 680 nm, λEm 520-620 nm). […]

Test [3] deals with Recombinant human CBP containing the bromodomain (CBP-BD (1043-1159)) (Homo sapiens, UniProt Q92793). The experiment in a line: CBP Alphascreen binding assay. The following applies: read-out: CREBBP (CBP) IC50. The procedure:
CBP Alphascreen Binding Assay
as §1, with “with CBP” for “with EP300”, “the CBP” for “the EP300”, “recombinant CBP,” for “recombinant EP300 protein,”, “which was” for “which is”, “signal. CBP” for “signal. EP300”, “the CBP—acetylated” for “the EP300—acetylated”
Recombinant human CBP containing the bromodomain (CBP-BD (1043-1159)) was prepared and purified as described in protein expression and purification session. The peptide was human Histone H345-64K56Ac-Biotin (Anaspec CA, USA).
Protocol for CBP assay: All components are prepared in buffer composed of 50 mM HEPES pH 7.5, 50 mM NaCl, 0.01% BSA, 0.01% Triton X-100, 2 mM DTT. […] 60 minutes after bead addition, Alpha signal was read on the Envision spectrometer (λEx 680 nm, λEm 520-620 nm). […]

Molecules are shown by their SMILES.

For the compound `CCOc1cc(C(=O)O)nc(OCC)c1-c1cn(-c2ccc(C3CC3)nc2)c2ncc(-c3c(C)noc3C)cc12`, the IC50 in test [1] lay within 0.1 to 1000 nM; in test [2], 1 to 8 µM; in test [3] it was 0.1 to 1000 nM.

A word on the IC50: it is the concentration that inhibits the measured activity by half.
